Measured values published in ChEMBL document CHEMBL4680094, “Insights of a Lead Optimization Study and Biological Evaluation of Novel 4-Hydroxytamoxifen Analogs as Estrogen-Related Receptor γ (ERRγ) Inverse Agonists” (J Med Chem, 2016).

Sequences of proteins named here, by UniProt entry; tags and fusion partners are left off. A change or cut given only in a name is not applied to a line headed by its entry.
UniProt Q12809: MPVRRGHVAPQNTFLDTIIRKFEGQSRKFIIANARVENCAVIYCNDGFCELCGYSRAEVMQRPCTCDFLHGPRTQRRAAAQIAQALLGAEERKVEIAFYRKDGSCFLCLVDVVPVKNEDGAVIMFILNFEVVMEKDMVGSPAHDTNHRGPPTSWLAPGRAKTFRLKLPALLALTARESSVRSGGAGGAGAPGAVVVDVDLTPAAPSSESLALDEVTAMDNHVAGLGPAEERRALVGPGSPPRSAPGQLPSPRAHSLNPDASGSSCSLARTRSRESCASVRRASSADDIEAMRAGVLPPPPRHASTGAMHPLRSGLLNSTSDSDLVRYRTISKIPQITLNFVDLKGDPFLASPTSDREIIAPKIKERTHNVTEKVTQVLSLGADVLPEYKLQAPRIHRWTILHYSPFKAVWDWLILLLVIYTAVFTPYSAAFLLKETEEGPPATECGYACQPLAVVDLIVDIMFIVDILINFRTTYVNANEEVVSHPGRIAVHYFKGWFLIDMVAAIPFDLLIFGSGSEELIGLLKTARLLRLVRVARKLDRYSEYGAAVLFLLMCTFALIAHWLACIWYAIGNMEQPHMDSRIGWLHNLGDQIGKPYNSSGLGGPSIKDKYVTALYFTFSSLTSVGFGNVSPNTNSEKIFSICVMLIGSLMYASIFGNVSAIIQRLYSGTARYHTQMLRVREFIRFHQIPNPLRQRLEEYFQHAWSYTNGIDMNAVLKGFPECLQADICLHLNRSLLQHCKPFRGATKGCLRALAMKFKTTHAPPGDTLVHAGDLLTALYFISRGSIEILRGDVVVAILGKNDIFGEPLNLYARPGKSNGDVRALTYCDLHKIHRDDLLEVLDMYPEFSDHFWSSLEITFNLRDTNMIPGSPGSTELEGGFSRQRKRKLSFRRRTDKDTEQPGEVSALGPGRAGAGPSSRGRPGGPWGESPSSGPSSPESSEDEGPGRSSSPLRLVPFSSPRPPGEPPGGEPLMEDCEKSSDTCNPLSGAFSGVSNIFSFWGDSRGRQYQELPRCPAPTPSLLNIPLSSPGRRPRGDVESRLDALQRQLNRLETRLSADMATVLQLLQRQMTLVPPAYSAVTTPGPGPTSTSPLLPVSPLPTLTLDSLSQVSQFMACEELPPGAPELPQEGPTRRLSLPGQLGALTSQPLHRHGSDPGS

Assays:
[1] = target: T1, Steroid hormone receptor ERR2 (Homo sapiens, UniProt O95718); assay: Binding affinity to GST-tagged ERRbeta LBD (unknown origin) using fluorescein PGC1alpha as coactivator incubated for 1 hr by LanthaScreen TR-FRET co-regulator assay
T1 sequence (O95718 whole entry): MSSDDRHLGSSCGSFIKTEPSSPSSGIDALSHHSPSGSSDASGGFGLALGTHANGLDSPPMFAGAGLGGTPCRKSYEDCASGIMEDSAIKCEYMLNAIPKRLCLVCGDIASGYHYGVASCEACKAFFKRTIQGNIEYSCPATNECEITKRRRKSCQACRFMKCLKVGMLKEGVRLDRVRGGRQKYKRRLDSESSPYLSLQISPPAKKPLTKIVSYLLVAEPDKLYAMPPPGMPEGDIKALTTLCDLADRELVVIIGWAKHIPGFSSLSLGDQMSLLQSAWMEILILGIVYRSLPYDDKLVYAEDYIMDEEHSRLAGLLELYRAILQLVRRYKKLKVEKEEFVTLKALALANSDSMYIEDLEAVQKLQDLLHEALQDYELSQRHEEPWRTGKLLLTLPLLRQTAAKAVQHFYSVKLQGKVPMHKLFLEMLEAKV

[2] = target: Voltage-gated inwardly rectifying potassium channel KCNH2 (Homo sapiens, UniProt Q12809); assay: Inhibition of human ERG measured after 4 hrs by fluorescence polarization assay

Structure (SMILES): CN(C)CCOc1ccc(/C(=C(/CCCO)c2ccccc2)c2ccc(O)cc2)cc1
- IC50 [1]: > 10 µM
- IC50 [2]: > 30 µM
